Results: ChEMBL document CHEMBL1124646, “Sulfur-containing 1,3-dialkylxanthine derivatives as selective antagonists at A1-adenosine receptors” (J Med Chem, 1989)

Chains of the proteins cited; added tags and fusions are not shown.
UniProt P25099, whole entry: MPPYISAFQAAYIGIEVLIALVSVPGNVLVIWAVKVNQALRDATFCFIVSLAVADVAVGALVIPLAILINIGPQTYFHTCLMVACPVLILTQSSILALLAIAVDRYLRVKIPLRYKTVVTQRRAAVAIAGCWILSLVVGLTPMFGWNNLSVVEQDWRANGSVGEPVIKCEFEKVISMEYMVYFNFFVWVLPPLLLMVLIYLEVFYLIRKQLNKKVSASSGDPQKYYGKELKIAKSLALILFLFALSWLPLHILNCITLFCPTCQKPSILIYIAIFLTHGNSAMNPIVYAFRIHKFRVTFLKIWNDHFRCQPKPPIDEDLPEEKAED

Biological target: Adenosine receptor A1 (Rattus norvegicus, UniProt P25099)
Type: cell membranes, Membrane

CCCn1c(=O)c2[nH]c(-c3ccc(OCC(=O)N(C)CCN(C)C)cc3)nc2n(CCC)c1=O
pKi: 9.03

pKi: −log10 of the molar value.
